Test system: HIV-1
Conditions: 10, 30, 60, 100, 200 μg/ml

In the case of `CCc1ccc2c3[nH]c4ccccc4c3cc[n+]2c1` [flavopereirine], the “inhibition of infection of target PBMC” value is reported as “found to inhibit infection of target PBMC by the virus in a manner dependent on the dose”.

Reference: US5519028A, “Antiviral preparations” (priority 1992, dated 1996)
